# Binding of CDR-mutated scFvs to a peptide of the spike HR2 region

Antigen: PDVDLGDISGINAS, a 14-residue peptide of the SARS-CoV-2 spike HR2 region.

The variants keep the light chain, the linker and the frameworks of Ab-14 (scFv order VH, three GGGGS repeats, VL).
VH: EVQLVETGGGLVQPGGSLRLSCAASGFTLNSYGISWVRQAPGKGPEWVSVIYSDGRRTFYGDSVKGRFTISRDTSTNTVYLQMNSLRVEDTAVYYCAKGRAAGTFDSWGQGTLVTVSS
VL: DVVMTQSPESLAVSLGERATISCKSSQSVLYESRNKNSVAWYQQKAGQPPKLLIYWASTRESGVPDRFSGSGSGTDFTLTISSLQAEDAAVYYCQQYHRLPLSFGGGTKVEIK

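AAYL49 was designed without a model: most single CDR substitutions and a random sample of double and triple ones. In AlphaSeq, yeast of one mating type display the scFv and yeast of the other type display the target. Pairs that bind mate more often; barcode pairs of the diploids are counted by sequencing. The ratio of observed to expected reads was calibrated, replicate by replicate, on BCL2-family standards whose Kd was known from biolayer interferometry. Mating was done three times.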

Each variant is given by its three heavy chain CDRs, as the data file delimits them; those of the parent are GFTLNSYGIS, VIYSDGRRTFYGDSVK, GRAAGTFDS. Numbers give log10(Kd / nM), so 0 is 1 nM and 3 is 1 µM. Smaller is tighter. Replicates are averaged; those with no signal do not enter the mean. A pair that was not seen in any replicate is written "nd"; this usually means weak binding, but a binder can also be missed. In this assay the parent's reference entry averaged 0.65; its copy inside this library read 4.11 (one replicate of three). Background: pairings of library AAYL49 with three empty control strains gave a value in 15% of cases (median 4.06, 5th percentile 2.83). Values in that range, when seen in few replicates, are hard to tell from nonspecific mating.

CDR-H1	CDR-H2	CDR-H3	mean, log10 nM	detected
GFTLNSIGIS	VYYSDGRRTSYGDSVK	GRAAGTFDS	6.29	1 of 3
GFTENSYGIS	VIYSDGRMTFYGDSVK	SRAAGTFDS	4.69	2 of 3
GFTRNSYGIS	VIYSDGDRTFYGDSVK	GRAHGTFDS	nd	0 of 3
GFTLNHYGIS	VIYSDGRRTFYGDSVK	HRAAGTFCS	nd	0 of 3
GFTLNTYGIS	TIYSDGRRTFYGDSVK	GRAAGRFDS	2.39	3 of 3
GFTLNSYGIS	VIYSDGRRTFYGDSVK	GRAAGEFSS	nd	0 of 3
GFTLNSYGIS	CIYSDQRRSFYGDSVK	GRAAGTFDS	4.42	1 of 3
GFTTNSYGIS	VIYSDGRWTFYGDSVL	GRAAGTFDS	3.73	1 of 3
GFTLPSYGIS	VIYSDGRRTCSGDSVK	GRAAGTFDS	nd	0 of 3
VWTLNSYGIS	VIYSDGSRTFYGDSVK	GRAAGTFDS	3.93	1 of 3
GFTLNSYGIS	VIYYDGRRTFYGDSVL	GRAAGTFDS	nd	0 of 3
GFTSNWYGIS	VIYSDGRRTFYGDSVK	GRAAGRFDS	4.13	2 of 3
GFTLNSYGIS	VIYSDKRRTFYGDSVK	GRAAGCFDS	4.45	1 of 3
GFTLNSYGIS	VIASDGRRTFYIDSVK	GRAAGTTDS	3.60	1 of 3
CFTLSSYGIS	VIYSGGRRTFYGDSVK	GRAAGTFDS	nd	0 of 3
GFTLNSYGIS	VIYSDERRGFYGDSVK	GRAAGTFDS	nd	0 of 3
GFTLNSYGIS	VIYSDGRRTFYGDHCK	GRAAGTTDS	3.89	3 of 3
GFTLNSYGIS	VIYSDGRRTFYGDSVK	GTAACTFDS	5.35	3 of 3
GFTLNSYCIS	VIYSDGRRTFYGDEVK	GRAAGTFDI	nd	0 of 3
GFTRNSYGIS	VCYSDGRRTFYGDSVK	GRATGTFDS	5.00	1 of 3
GFTLNEYGIS	VIYSDIRFTFYGDSVK	GRAAGTFDS	4.24	1 of 3
GFTLNSYGIS	VIYSDPRVTFYGDSVK	GRAAGTFDS	nd	0 of 3
GFTLNYYLIS	VIYSDGRRTFYGDMVK	GRAAGTFDS	4.34	2 of 3
GFTLNSYGIH	VIYSDGRMTFYGDSVG	GRAAGTFDS	5.98	1 of 3
GFTLNSYGIS	VIYPDGRRTFYGHSVD	GRAAGTFDS	2.20	3 of 3
GHTRNSYGIS	VIYSDGRRTFYGDSVK	GRAAGTFDS	nd	0 of 3
GFTKNSYGIS	VPYSDGRRTFYGDSVK	GRAAGCFDS	3.78	2 of 3
GFTLNSWGIS	VIYSDGRRTFYGDSPY	GRAAGTFDS	3.78	2 of 3
GFTLNSYGIS	VIYSDGRRTFYGDSVK	GRHAWTFYS	3.83	1 of 3
GLTLNSYGIS	VIYSDGRRTFYGDSVR	GEAAGTFDS	0.56	3 of 3
QFTLNSYGIS	VAYSDGNRTFYGDSVK	GRAAGTFDS	nd	0 of 3
GDTLNSYGIS	VIYSDGRRTMYGDSVK	GRAAETFDS	3.39	1 of 3
GFTLNSYGIM	VIYSDGRRTFYGDSVK	SRAAGTFAS	3.96	1 of 3
GFTLNSYGIS	VIYSDGRRTFYGNSVK	GRAAGIFDV	1.23	3 of 3
WFTLNSYGIS	VIYSDGRRTIYGDNVK	GRAAGTFDS	nd	0 of 3
GFTLNSYGIS	VIYSDGRRTNYGDVVK	GRKAGTFDS	nd	0 of 3
GFTLNSYGIS	VTYSDGRRWFYGDSVK	GRAAGTYDS	nd	0 of 3
GFGDNSYGIS	VSYSDGRRTFYGDSVK	GRAAGTFDS	3.92	1 of 3
GFTLCSYGIS	VIYSDGRRTTYGDSVK	GRAAGTFDS	nd	0 of 3
GFTLCSYGIS	VIYSDGRRTKYGDSVK	GRAANTFDS	4.55	2 of 3
ARTLNSYGES	VIYSDGRRTFYGDSVK	GRAAGTFDS	3.22	1 of 3
GFTLNSTGIS	VIYSDGRRTFYGFSVK	GRAAGRFDS	nd	0 of 3
GFTLNSYGIS	VIYSDGRRTFYGDPVK	GRAAGTFDR	2.31	3 of 3
GFTLNSYNIS	VIYSDGRRTFYGDQVK	GRAAGSFDS	4.37	2 of 3
GFWLNSYGIS	VIYSDGRRTIYGSSVK	GRAAGTFDS	4.90	2 of 3
GRTLNSYGIS	VIYSDGRRTFYGGSYK	GRAAGTFDS	nd	0 of 3
GFTLNSYGIS	VIYSDGYRTFYGDSVK	GRAHYTFDS	nd	0 of 3
GFGLLSYGIS	VIYSDGRRTFYGDSLK	GRAAGTFDS	nd	0 of 3
GFTLNSYGIS	VIYSQGRRTFYGDSCK	GRAAGTFDS	nd	0 of 3
GFTLHPYGIS	VIYSDGRRTFYGDDVK	GRAAGTFDS	4.34	1 of 3
GFTLNSLGIG	VIYSDGRRGFYGDSVK	GRAAGTFDS	3.85	1 of 3
GFTLNSYGGS	VIYSDGRRTFYPDSVK	TRAAGTFDS	nd	0 of 3
GFTLNSYGIS	GIVSDGRRTFYGDSVK	GRAYGTFDS	nd	0 of 3
GFTLSSYGIS	VIYSDGRREFYGDSVK	WRAAGTFDS	nd	0 of 3
GFTSNSYGIS	VIYSDGRRTFYGDSVK	GRAAGTMMS	nd	0 of 3
GFTLNSYGIS	VIYSDGRVTFKKDSVK	GRAAGTFDS	5.82	1 of 3
GFTLNSYAIS	VIYSDGRRTFYGDSVK	ERAAGTFNS	2.34	1 of 3
GFTLNSYGIS	VIDSDGRRTFYWDSVK	GRAANTFDS	nd	0 of 3
GFTLNTYGIS	EDYSDGRRTFYGDSVK	GRAAGTFDS	nd	0 of 3
GFTLNSYGIS	VIYEDGRRTFYGKSVK	GYAAGTFDS	3.25	1 of 3
GFTLNSYGIS	VIYSDTRRTFYGDSVK	GRAAGVWDS	4.80	3 of 3
GFTLNSYGCS	VIYSDGIRTFYFDSVK	GRAAGTFDS	3.90	1 of 3
GFTLLCYGIS	VIYSDGRRTFYGDSVK	GRAAGTFDS	nd	0 of 3
GFTLNSYGIS	KIYHDGRRTFYGMSVK	GRAAGTFDS	nd	0 of 3
GITLNPTGIS	VIYSDGRRTFYGDSVK	GRAAGTFDS	4.38	1 of 3
GFTLNSYGLS	VFYSDGRRTFYGDNVK	GRAAGTFDS	4.16	1 of 3
GFTLNSYGIF	VIYSDGRRTFYFDSVK	GRAAGTKDS	3.02	1 of 3
GFTLNSYGIS	VQYSDGRRAFYGDSQK	GRAAGTFDS	nd	0 of 3
GFTLNSYGIS	VIYSWGRRTFYGDSVK	DRAAGTFTS	4.90	2 of 3
GFTLNSYGIL	VIYSDGRRTFYFDKVK	GRAAGTFDS	nd	0 of 3
GFTLNSYGIS	VQYSDGQRTFYGDSVK	GRAAWTFDS	nd	0 of 3
GFTLNSYGIM	VIYSDNRRTFYGDSWK	GRAAGTFDS	nd	0 of 3
GFTLNSYLIS	VICSDGRRTFLGDSVK	GRAAGTFDS	nd	0 of 3
TFTLNSYGIE	VIYSDGRRTFYGDSVM	GRAAGTFDS	nd	0 of 3
GFTLNSYGDK	VIYSDGRRHFYGDSVK	GRAAGTFDS	4.53	2 of 3
GFTLNSYGIS	VIYSPGRRTFKGDSVK	GREAGTFDS	4.91	1 of 3
GFTLNSYGIS	VEYSDGLRTFYGDSVK	GRAAFTFDS	nd	0 of 3

The first 10 variants above that were never detected:

CDR-H1	CDR-H2	CDR-H3	mean, log10 nM	detected
GFTRNSYGIS	VIYSDGDRTFYGDSVK	GRAHGTFDS	nd	0 of 3
GFTLNHYGIS	VIYSDGRRTFYGDSVK	HRAAGTFCS	nd	0 of 3
GFTLNSYGIS	VIYSDGRRTFYGDSVK	GRAAGEFSS	nd	0 of 3
GFTLPSYGIS	VIYSDGRRTCSGDSVK	GRAAGTFDS	nd	0 of 3
GFTLNSYGIS	VIYYDGRRTFYGDSVL	GRAAGTFDS	nd	0 of 3
CFTLSSYGIS	VIYSGGRRTFYGDSVK	GRAAGTFDS	nd	0 of 3
GFTLNSYGIS	VIYSDERRGFYGDSVK	GRAAGTFDS	nd	0 of 3
GFTLNSYCIS	VIYSDGRRTFYGDEVK	GRAAGTFDI	nd	0 of 3
GFTLNSYGIS	VIYSDPRVTFYGDSVK	GRAAGTFDS	nd	0 of 3
GHTRNSYGIS	VIYSDGRRTFYGDSVK	GRAAGTFDS	nd	0 of 3

Data: MIT Lincoln Laboratory AlphaSeq set, Engelhart et al. 2022, doi:10.1038/s41597-022-01779-4, as distributed in FLAb.